Earlier results, collected in article PMC3439991, “Reversible Crystallization of Argatroban after Subcutaneous Application in Pigs” (Thrombosis, 2012).

Target: thrombin
Parameters: method as in PMID 9469622, PMID 11994559
Details: catalytic site of thrombin; cited from earlier work

Structure (SMILES): CC1CNc2c(cccc2S(=O)(=O)N[C@@H](CCCNC(=N)N)C(=O)N2CC[C@@H](C)C[C@@H]2C(=O)O)C1 (stereo partly shown) [Argatroban]
- Ki: 39 nM
